Structures are written as SMILES.

Protein sequences, listed by entry. Tags and fused reporters are not part of them. Lines headed by an entry give the natural chain unless they say otherwise; changes in a name come on top.
UniProt P22303: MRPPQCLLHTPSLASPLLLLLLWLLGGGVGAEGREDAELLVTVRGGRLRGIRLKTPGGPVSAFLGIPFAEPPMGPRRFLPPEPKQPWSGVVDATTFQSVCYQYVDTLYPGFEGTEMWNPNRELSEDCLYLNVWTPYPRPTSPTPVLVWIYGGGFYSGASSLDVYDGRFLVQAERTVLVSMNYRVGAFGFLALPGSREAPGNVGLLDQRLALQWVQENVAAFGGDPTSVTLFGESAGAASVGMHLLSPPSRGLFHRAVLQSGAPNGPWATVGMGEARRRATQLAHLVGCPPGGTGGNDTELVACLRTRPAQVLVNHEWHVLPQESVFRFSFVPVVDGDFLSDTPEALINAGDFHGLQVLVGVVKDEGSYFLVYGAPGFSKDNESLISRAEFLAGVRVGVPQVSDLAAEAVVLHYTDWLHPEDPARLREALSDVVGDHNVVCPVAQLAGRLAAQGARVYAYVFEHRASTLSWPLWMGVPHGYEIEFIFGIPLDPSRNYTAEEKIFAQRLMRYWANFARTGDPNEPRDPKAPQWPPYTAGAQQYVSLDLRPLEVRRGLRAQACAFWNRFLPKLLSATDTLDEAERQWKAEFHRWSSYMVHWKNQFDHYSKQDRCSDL

As a reminder, the Ki is the equilibrium dissociation constant of an inhibitor or competing ligand from its target.

The target of this assay is Acetylcholinesterase (Homo sapiens, UniProt P22303). Description: Inhibition Assay. An excerpt:
Inhibition constant using AChE or BuChE.

`CC[N+](C)(CC)CCCn1c2cc(=N)ccc-2c2ccc(N)cc2c1-c1ccccc1` [Propidium Iodide, 2]: the Ki was 9.73 µM.

For the origin of these results see BindingDB's records for doi:10.1021/bi300955k (Dalhousie University, 2012).
